# Antibody variant affinities, Ab-14 light chain, assay B

Target: peptide PDVDLGDISGINAS, taken from heptad repeat 2 (HR2) of SARS-CoV-2 spike.

Parent: Ab-14, a human scFv built as VH, a 15-residue (Gly4Ser)3 linker, VL. Only the CDRs of the light chain vary.
VH: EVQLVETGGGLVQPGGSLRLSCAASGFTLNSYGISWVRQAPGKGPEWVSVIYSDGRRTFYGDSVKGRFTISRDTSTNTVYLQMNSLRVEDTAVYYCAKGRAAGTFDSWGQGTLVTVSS
VL: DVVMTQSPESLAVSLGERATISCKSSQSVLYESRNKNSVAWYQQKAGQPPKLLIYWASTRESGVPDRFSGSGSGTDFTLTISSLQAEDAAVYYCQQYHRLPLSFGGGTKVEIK

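The variants were designed computationally from a first round of random CDR variants and then made and measured. Their group label is 14L_Ctrl (Ctrl: baseline library sampled from a position-specific scoring matrix, with some repeated check sequences). AlphaSeq pools MATa yeast showing the antibodies with MATalpha yeast showing the peptide. Pairs that bind mate more often; barcode pairs of the diploids are counted by sequencing. Read counts were normalised to the haploid input and turned into Kd by a linear fit to BCL2-family pairs of known affinity, for each replicate. Mating was done six times.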

The parent's light chain CDRs are KSSQSVLYESRNKNSVA, WASTRES, QQYHRLPLS; each variant's own CDRs replace them letter for letter.
Numbers give log10(Kd / nM), so 0 is 1 nM and 3 is 1 µM. Smaller is tighter.
A pair that was not seen in that replicate is written "n.d."; this usually means weak binding, but a binder can also be missed.
Of ten entries with the parent sequence, four were seen in most replicates (averages 0.34 to 2.37), three in one and three in none, so single entries are noisy.

| CDR-L1 | CDR-L2 | CDR-L3 | log10 Kd, replicates | empty controls |
|---|---|---|---|---|
| KSSQSVLYESRNKNSVA | WASTRIS | QQYHRLPLS | n.d. n.d. n.d. n.d. n.d. n.d. | 0 of 18 |
| KSSQSVLYESRNKNSVA | WASTRET | QQYHRLPLS | 1.91 2.80 1.03 2.52 2.29 2.94 | 1 of 18 (2.00) |
| KVSQSVLYESRNKNSVA | GASTRES | QNYHRLPLS | 0.10 0.35 0.07 0.29 0.37 0.26 | 2 of 18 (2.65) |
| KLSQSQLYESRNKNSVA | GASIRES | QQYHRLPLS | 0.19 0.04 0.04 0.02 0.13 0.30 | 1 of 18 (3.59) |
| KSSQSPLYESWNKNSVA | WASTRES | QQYHRLPLS | n.d. n.d. n.d. n.d. n.d. n.d. | 0 of 18 |
| KTSQSDLYESNNKNSVA | WASTRES | QQYHRLPLS | n.d. n.d. n.d. n.d. n.d. n.d. | 1 of 18 (1.11) |
| KLTQSVLYESRNKNSVA | WASTRDS | QQYWRLPIS | n.d. 2.18 2.67 1.33 2.15 n.d. | 1 of 18 (2.20) |
| KSSQSVLDESRNKNSVA | QASTRES | QQYHRLVLS | 0.93 n.d. 0.61 0.47 2.24 0.94 | 0 of 18 |
| KSSQIVLYESRNKNSVA | GASTRSS | QQYHRLPLS | 1.01 0.72 0.67 1.51 0.93 1.31 | 0 of 18 |
| KSSQNVLYESRNKNSVA | WASTRES | QQYIRLPLS | 0.75 0.45 0.33 0.06 0.82 0.91 | 0 of 18 |
| SHAQSVLYEVRNKNSVA | WASTRES | QQKSRLPLS | n.d. n.d. n.d. 1.52 n.d. n.d. | 1 of 18 (1.96) |
| DSSQSVLYESGNTNSVA | WASTRES | CQYHRLPLS | n.d. n.d. n.d. n.d. n.d. n.d. | 0 of 18 |
| KSSQSVLGEMRNKNSVA | AASTRES | QQYHRLPLS | 0.87 0.61 1.55 0.71 0.75 1.02 | 0 of 18 |
| KSSQSVLYESRNKNSVA | ERSTRAS | QQYHRLPLS | 0.57 0.17 0.28 0.26 0.35 0.71 | 4 of 18 (2.87) |
| HMSQSVLYESRNKNSVA | DASTRET | QQYHRLPLS | -0.21 -0.65 -0.62 -0.67 -0.68 -0.42 | 0 of 18 |
| KSSESVLYESRNKNSVA | NASTRES | QQYHRLPLS | 1.12 0.40 0.90 0.96 1.11 0.42 | 0 of 18 |
| KCSQSVLYESRNKNSVA | WASTRES | QQYHRLPLM | 2.25 2.08 2.27 0.96 2.20 1.17 | 0 of 18 |
| KSSQSVLYESRNKNSIA | DASTRES | QQYHRLPLS | 0.29 0.07 -0.11 -0.05 0.40 0.32 | 2 of 18 (2.62) |
| KNSQSDLYESRNKNPVA | QASTRES | QQYHRTPLS | n.d. n.d. n.d. n.d. n.d. n.d. | 0 of 18 |
| KWSQSDLYESRNKNSVA | WASTRES | QQYHRLPLS | 2.12 1.48 1.57 0.41 1.98 1.66 | 0 of 18 |
| KVSQSVLWEMSNKNSVA | WASTRES | QQYHRLELS | n.d. 1.11 1.37 1.52 n.d. n.d. | 0 of 18 |
| KSSQSVLYESRNKNSVA | DASTRES | YQYHRLPLS | n.d. n.d. n.d. n.d. n.d. n.d. | 0 of 18 |
| KSSQSVLNESRNKNSVA | GASTRES | GSYHRLPLS | 2.37 1.99 2.30 1.44 n.d. 1.72 | 1 of 18 (2.44) |
| KFSQIVLYDSRNKNSVA | WAYTRES | QQYHRLPLS | n.d. n.d. n.d. n.d. n.d. n.d. | 0 of 18 |
| KSSQSLLYESRNKNSVA | WGSTRES | GQYARLPLS | 3.78 1.30 2.16 1.86 1.49 1.83 | 0 of 18 |
| KSSQSVLYDSRNKNSVA | WASTRES | QQYQRLPLS | 1.00 1.59 1.12 0.75 0.95 1.07 | 0 of 18 |
| KSSQSVLYESRNKNSVA | WASTRES | QQYHRLPFS | 2.45 1.52 2.20 2.21 1.28 1.79 | 0 of 18 |
| KRSKSVLHESRNKNSVA | RLSTRFS | QQYHRLPLS | n.d. n.d. n.d. n.d. n.d. n.d. | 0 of 18 |
| KSSQSWLYFSRNKNSVA | NASTRES | QQYHRLPLS | n.d. 1.60 n.d. n.d. 0.90 1.02 | 0 of 18 |
| KISQSVNYESRNKNSVA | WASTRES | QQYHRLPLS | 1.02 0.24 0.20 0.50 0.47 0.57 | 0 of 18 |
| QSMQSVLYESMNKNSVA | WASTRES | QQYHRWPLS | n.d. n.d. n.d. n.d. n.d. n.d. | 1 of 18 (3.32) |
| KSSQLVLYEGVNKNSVA | WASTRES | QQYHRLPLS | 1.97 1.55 1.30 1.05 1.16 1.38 | 2 of 18 (1.92) |
| KLSQSVLYESRNKNSVA | CASTRES | QQYLRLPLS | 1.06 0.97 1.08 1.73 1.02 1.19 | 2 of 18 (3.13) |
| KSSQSVLMEERNKNSVA | WASTRES | QQYHRLPLS | 1.81 2.57 1.80 1.85 1.70 1.72 | 0 of 18 |
| KSSWSVLYESMNKNSVA | HASTRES | QQYHRLPLS | n.d. n.d. 1.60 2.48 2.03 1.82 | 0 of 18 |
| KSSQSVLYLSRNKNSVA | WASTRES | QQYHGLPLT | 1.22 n.d. n.d. n.d. n.d. n.d. | 1 of 18 (1.52) |
| KHSQSVLTESRNKNSVA | WASTREF | QQYHRLLLS | n.d. n.d. n.d. n.d. n.d. n.d. | 0 of 18 |
| KSSQSWLLESRNKNSVA | HASTRES | QQYHRLPLS | 0.44 n.d. n.d. 0.80 1.51 0.27 | 0 of 18 |
| KISQSVLRESRNVNSVA | EASTRES | QQYHCLPLT | -0.07 0.09 0.00 -0.02 -0.21 -0.02 | 0 of 18 |
| KSSQSVLYESRNKNSVA | AASTREQ | QQYHRLPLS | 0.73 1.04 0.71 0.64 0.40 0.76 | 1 of 18 (2.26) |
| KSSQSVLYESPNKNSVA | WASHRAS | QQYHRLPNS | n.d. n.d. n.d. n.d. n.d. n.d. | 2 of 18 (2.89) |
| KLSCSVLYEQRNKNSMA | WASTRES | QQYHRLPLS | n.d. n.d. n.d. n.d. n.d. 2.75 | 0 of 18 |

The authors' rule: three or more of the six replicates give a measured affinity, fewer mean a poor binder.
Values of this round are not directly comparable with the first-round values of the same sequences.
As a blank, each scFv also met three strains without target: over all light chain designs, 4% of these pairings were detected, typically at 2.64 and seldom below 1.59. For each scFv, signals with the empty controls are counted beside the result, with their mean in brackets.

The measurements come from Li et al. 2023 (doi:10.1038/s41467-023-39022-2) through the FLAb antibody collection.